The values that follow come from US20250346630A1 (AGENCY FOR SCIENCE TECHNOLOGY AND RESEARCH, published 2025).

Sequences of proteins named here, by UniProt entry; tags and fusion partners are left off. Residues count along the entry.
UniProt P06730, 2-217: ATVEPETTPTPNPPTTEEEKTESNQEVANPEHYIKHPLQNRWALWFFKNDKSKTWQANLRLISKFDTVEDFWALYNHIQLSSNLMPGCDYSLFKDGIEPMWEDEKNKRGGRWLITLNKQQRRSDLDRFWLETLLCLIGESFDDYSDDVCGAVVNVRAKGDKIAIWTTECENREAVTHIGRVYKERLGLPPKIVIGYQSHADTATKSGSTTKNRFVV
UniProt P12004, whole entry: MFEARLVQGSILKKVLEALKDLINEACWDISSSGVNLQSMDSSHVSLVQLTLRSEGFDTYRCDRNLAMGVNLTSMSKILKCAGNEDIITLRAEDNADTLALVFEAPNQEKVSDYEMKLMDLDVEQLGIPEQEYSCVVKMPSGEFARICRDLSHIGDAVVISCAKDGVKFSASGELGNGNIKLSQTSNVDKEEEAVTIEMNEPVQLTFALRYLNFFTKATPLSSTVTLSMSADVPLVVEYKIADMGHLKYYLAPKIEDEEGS

Experiment [1] deals with T1, full-length human eIF4E (human, UniProt P06730 2-217).
T1 construct: mature; Used here for the purified full-length protein (anisotropy, ITC, crystals) and for endogenous eIF4E of HEK293 cells in pull-downs; also called cellular eIF4E
Nature of the experiment: isothermal titration calorimetry; the sentence cites Table 3, which prints 36.3 ± 17.0. On the technique in general: ITC needs no label: the signal is the heat of the interaction.

Experiment [2] deals with T1, full-length human eIF4E. The experiment is described as follows: competitive fluorescence anisotropy, displacement of m7GTP^FAM from eIF4E (apparent Kd); m^7GTP^FAM competitive anisotropy, cap-binding site, non-reducing.
For experiment [3], the target named is T2, proliferating cell nuclear antigen (PCNA) (human, UniProt P12004 1-261).
T2 construct: Used here for the purified protein (anisotropy) and for endogenous PCNA of HEK293 and A375 cells in anti-FLAG pull-downs
Nature of the experiment: direct fluorescence anisotropy titration of PCNA against 50 nM labelled tracer. On the technique in general: Fluorescence polarisation rises when a labelled molecule tumbles more slowly, as on binding a larger partner.

For experiment [4], the target named is T1, full-length human eIF4E. The experiment is described as follows: competitive fluorescence anisotropy, displacement of m7GTP^FAM from eIF4E (apparent Kd); m^7GTP^FAM tracer: competition at the cap-binding site.

B1: VH-DiF^CAP-01 (purified, His-tagged) (designed binder)
VH: MSEVQLVESGGGLVQPGGSLRLSSAISGFSISSTSIDWVRQAPGKGLEWVARISPSSGSTSYADSVKGRFTISADTSKNTVYLQMNSLRAEDTAVYYTGRPLPEMGFFTNIPAMVDYRGQGTLVTVSSGAA
notes: also called peptide aptamer 1 (eIF4E); not shown: C-terminal six-histidine tag from pET-22b(+)
In the experiment with full-length human eIF4E [1], B1 came in with a Kd of 0.0353 µM.

B2: EE-02 (peptide)
peptide: ACEMGFFQDCG
modifications: disulphide C2-C10; C-terminal amide; N-terminus printed NH2- (methods: all peptides N-acetylated)
notes: also called constrained macrocyclic peptide EE-02
On to B2, for which, in the experiment with full-length human eIF4E [2], the Kd turned out to be 0.406 µM.

B3: PCNA tracer peptide Ac-SAVLQKKITDYFHPKK-K (5-carboxylysine)-NH2 (peptide)
peptide: SAVLQKKITDYFHPKKK
modifications: N-terminal acetyl; last Lys printed as K (5-carboxylysine), the labelled residue; C-terminal amide
B3 showed a Kd in experiment [3] of 0.15 µM.

B4: EE-09 (peptide)
peptide: ACEMGYFGNCG
modifications: disulphide between the two Cys; C-terminal amide; N-terminus printed NH2- (methods: all peptides N-acetylated)
On to B4, for which, in the experiment with full-length human eIF4E [4], the Kd stood at 4.86 µM.
